{
  "source": "PubChem BioAssay AID686970",
  "about": "(National Center for Advancing Translational Sciences (NCATS), 2013)",
  "note": "This is a selection; strong and weak results do not stand in their true shares. Inconclusive results are not listed. Active and inactive are the calls of the source. Calls follow the shape of the dose curve; as a rule, active = well fitted cell-killing curve with a large enough effect; inconclusive = small, poorly fitted or top-dose-only effect, or effect the other way; inactive = flat fitted curve, though single readings scatter. Potency is read from the fitted curve at half-maximal effect.",
  "data": [
    {"assay": "qHTS for induction of synthetic lethality in tumor cells producing 2HG: qHTS for the HT-1080-NT fibrosarcoma cell line;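 also: NT is the 2HG producing partner of a matched IDH1 knockdown line; nearly all actives have a fitted effect of over 55% in size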;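 as to activity, negative = less viability: 0% = DMSO-treated cells and -100% = media-only wells without cells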", "conditions": "HT-1080-NT fibrosarcoma viability, CellTiter-Glo ATP luminescence, 48 h; series mostly up to 46.1 µM; activity, negative = less viability: at the top concentration", "values": [
      {"smiles": "CCCOP(=S)(Nc1nc(N)cc(=O)[nH]1)OCCC", "activity, negative = less viability": "inactive: 9.19%"},
      {"smiles": "Cc1ccc(NCCc2c([N+](=O)[O-])cc([N+](=O)[O-])cc2[N+](=O)[O-])cc1", "activity, negative = less viability": "inactive: 3.06%"},
      {"smiles": "Nc1cccc2c([As](=O)(O)O)cccc12", "activity, negative = less viability": "inactive: 3.02%"},
      {"smiles": "O=[As](O)(c1cccc(O)c1)c1cccc(O)c1", "activity, negative = less viability": "inactive: 8.34%"},
      {"smiles": "Cc1cccc(OCC(=O)OC2CN3CCC2CC3)c1", "note": "(stereo not given)", "activity, negative = less viability": "inactive: 16.3%"},
      {"smiles": "O=[As](O)(O)c1cccnc1", "activity, negative = less viability": "inactive: 4.35%"},
      {"smiles": "CS(=O)(=O)c1ccc(Cl)c(NC(=O)COC(=O)C(O)(c2ccccc2)c2ccccc2)c1", "activity, negative = less viability": "inactive: 3.21%"},
      {"smiles": "O=C(OC1CN2CCC1CC2)c1ccc(Cl)cc1", "note": "(stereo not given)", "activity, negative = less viability": "inactive: 5.77%"},
      {"smiles": "CN(C)C(=O)c1cc([N+](=O)[O-])cc2c1-c1c(cc([N+](=O)[O-])cc1[N+](=O)[O-])C2=O", "Potency": "active: 10.3 µM"},
      {"smiles": "O=[N+]([O-])c1ccc2c(c1)nnn2O", "activity, negative = less viability": "inactive: -4.96%"},
      {"smiles": "CN(C(=O)Cc1ccc(Cl)c(Cl)c1)[C@H]1CC[C@@]2(CCCO2)C[C@@H]1N1CCCC1", "activity, negative = less viability": "inactive: -1.68%"},
      {"smiles": "N#CCCN(C(=O)COC(=O)C(O)(c1ccccc1)c1ccccc1)c1ccc(F)cc1", "activity, negative = less viability": "inactive: -6.64%"},
      {"smiles": "CN(C(=O)Cc1ccccc1)[C@@H]1CC[C@]2(CCCO2)C[C@H]1N1CCCC1", "activity, negative = less viability": "inactive: 2.91%"},
      {"smiles": "CCOP1(=S)c2c(C)nn(CCC#N)c2N=C(c2ccc(F)cc2)N1C", "note": "(stereo not given)", "activity, negative = less viability": "inactive: -17.1%"},
      {"smiles": "NC(=O)Nc1ccc([As](=O)(O)O)cc1", "activity, negative = less viability": "inactive: 4.13%"},
      {"smiles": "Nc1ccccc1[As](=O)(O)c1ccccc1", "activity, negative = less viability": "inactive: 10.9%"},
      {"smiles": "O=C(O)COc1ccc([As](=O)(O)O)cc1[N+](=O)[O-]", "activity, negative = less viability": "inactive: 12.5%"},
      {"smiles": "CS(=O)(=O)c1cc([N+](=O)[O-])c2no[n+]([O-])c2c1", "activity, negative = less viability": "inactive: 5.62%"},
      {"smiles": "CCOP1(=S)c2c(C)nn(CCC#N)c2N=C(c2ccccc2F)N1C", "note": "(stereo not given)", "activity, negative = less viability": "inactive: -7.06%"},
      {"smiles": "O=P(Nc1nccs1)(c1ccccc1)c1nc2ccccc2s1", "note": "(stereo not given)", "activity, negative = less viability": "inactive: -1.06%"},
      {"smiles": "O=P(Nc1nccs1)(Oc1ccccc1)Oc1ccccc1", "activity, negative = less viability": "inactive: 6.32%"},
      {"smiles": "Cc1ccccc1OP(=O)(Nc1ccccn1)Oc1ccccc1C", "activity, negative = less viability": "inactive: -16.8%"},
      {"smiles": "CC(NC(=O)COC(=O)C(O)(c1ccccc1)c1ccccc1)c1ccccc1", "note": "(stereo not given)", "activity, negative = less viability": "inactive: 1.86%"},
      {"smiles": "CN(C)C(=O)Oc1noc2ccccc12", "activity, negative = less viability": "inactive: 4.87%"},
      {"smiles": "O=c1c2cc([N+](=O)[O-])ccc2[nH]c2c([N+](=O)[O-])cc([N+](=O)[O-])cc12", "Potency": "active: 3.26 µM"},
      {"smiles": "COC(=O)c1cc2c(s1)N=C(c1ccccc1)N(C)P2(=O)N1CCOCC1", "note": "(stereo not given)", "activity, negative = less viability": "inactive: 15%"},
      {"smiles": "CC(=O)NC(SC(=S)N(CC(C)C)CC(C)C)C(Cl)(Cl)Cl", "note": "(stereo not given)", "activity, negative = less viability": "inactive: 3.4%"},
      {"smiles": "Cc1ccc(OP(=O)(Nc2ccccn2)Oc2ccc(C)cc2)cc1", "activity, negative = less viability": "inactive: -8.44%"},
      {"smiles": "O=C(OC1CN2CCC1CC2)c1ccccc1", "note": "(stereo not given)", "activity, negative = less viability": "inactive: 15.4%"},
      {"smiles": "CCC(=O)N1C2C3N(C(=O)CC)C1C1N(C(=O)CC)C(C(N1C(=O)CC)N3C(=O)CC)N2C(=O)CC", "activity, negative = less viability": "inactive: 15.4%"},
      {"smiles": "O=P1(N(CCCl)CCCl)OCCC2CCCCN21", "note": "(stereo not given)", "activity, negative = less viability": "inactive: 10.8%"},
      {"smiles": "CCNC(=S)/N=C(\\N)N[N+](=O)[O-]", "activity, negative = less viability": "inactive: -4.39%"},
      {"smiles": "O=C(NC1CCS(=O)(=O)C1)NP(=S)(Oc1ccccc1)Oc1ccccc1", "note": "(stereo not given)", "activity, negative = less viability": "inactive: 7.43%"},
      {"smiles": "c1ccc(-c2nn[nH]n2)c(-c2nn[nH]n2)c1", "activity, negative = less viability": "inactive: 17.2%"},
      {"smiles": "Cc1ccc(NP(=O)(Oc2cccc(C)c2)Oc2cccc(C)c2)nc1", "activity, negative = less viability": "inactive: 13.3%"},
      {"smiles": "CC(=O)Nc1ccc([As](=O)(O)O)c(O)c1", "activity, negative = less viability": "inactive: 4.06%"},
      {"smiles": "CC(=O)Nc1ccc(Oc2c([N+](=O)[O-])cc([N+](=O)[O-])cc2[N+](=O)[O-])cc1", "activity, negative = less viability": "inactive: -18.6%"},
      {"smiles": "N#C/C(=C\\c1ccc(N(CCBr)CCBr)cc1)C(N)=O", "activity, negative = less viability": "inactive: -0.369%"},
      {"smiles": "CC(=O)c1ccc(N2CC2c2ccncc2)cc1", "note": "(stereo not given)", "activity, negative = less viability": "inactive: 14.2%"},
      {"smiles": "COC(=O)C1(C)COP(=O)(NCc2ccccc2)OC1", "note": "(stereo not given)", "activity, negative = less viability": "inactive: 8.9%"},
      {"smiles": "Cc1ccccc1CN(C)C(=O)COC(=O)C(O)(c1ccccc1)c1ccccc1", "activity, negative = less viability": "inactive: -7.07%"},
      {"smiles": "C[C@@H]1C=CCP(=O)(Oc2ccccc2)O1", "note": "(stereo not given in full)", "activity, negative = less viability": "inactive: 0.0189%"},
      {"smiles": "C[C@H]1OP(=O)(Oc2ccccc2)C[C@@H]2O[C@@H]21", "note": "(stereo not given in full)", "activity, negative = less viability": "inactive: 4.79%"},
      {"smiles": "CCc1cc(O)c([N+](=O)[O-])c(C)c1[N+](=O)[O-]", "activity, negative = less viability": "inactive: 1.19%"},
      {"smiles": "CC(C)(C)C(=O)NC(Sc1ccccc1)C(Cl)(Cl)Cl", "note": "(stereo not given)", "activity, negative = less viability": "inactive: 2.08%"},
      {"smiles": "O=P1(Nc2nc3ccc(Cl)cc3s2)COc2ccccc2O1", "note": "(stereo not given)", "activity, negative = less viability": "inactive: -3.85%"},
      {"smiles": "CCOc1ccc(C2=NCC(CBr)S2)cc1", "note": "(stereo not given)", "activity, negative = less viability": "inactive: 0.158%"},
      {"smiles": "c1nnnn1CCn1cnnn1", "activity, negative = less viability": "inactive: 15.5%"},
      {"smiles": "CC(C)C(=O)NC(Sc1ccccc1)C(Cl)(Cl)Cl", "note": "(stereo not given)", "activity, negative = less viability": "inactive: 4.63%"},
      {"smiles": "O=P(Nc1nccs1)(c1ccccc1)c1ccccc1", "activity, negative = less viability": "inactive: 12%"},
      {"smiles": "Nc1ccc([As](=O)(O)c2ccc([N+](=O)[O-])cc2)cc1", "activity, negative = less viability": "inactive: 24.6%"},
      {"smiles": "C(Cc1nn[nH]n1)Cc1nn[nH]n1", "activity, negative = less viability": "inactive: 15.7%"},
      {"smiles": "O=C(OC1CN2CCC1CC2)c1cccc(Cl)c1", "note": "(stereo not given)", "activity, negative = less viability": "inactive: 8.79%"},
      {"smiles": "CC(=O)NC(SC(=S)N(C)C)C(Cl)(Cl)Cl", "note": "(stereo not given)", "activity, negative = less viability": "inactive: 1.09%"},
      {"smiles": "O=[N+]([O-])c1ncn(CCn2cnc([N+](=O)[O-])n2)n1", "activity, negative = less viability": "inactive: 1.41%"},
      {"smiles": "O=[As](O)(c1ccccc1)c1ccc(O)cc1", "activity, negative = less viability": "inactive: 12.7%"},
      {"smiles": "C[C@H]1OP(=O)(Oc2ccccc2)[C@H](O)[C@H](O)[C@H]1N=[N+]=[N-]", "note": "(stereo not given in full)", "activity, negative = less viability": "inactive: -0.0888%"},
      {"smiles": "Nc1ccc(CCCCOc2ccccc2)cc1", "activity, negative = less viability": "inactive: -24.9%"},
      {"smiles": "COc1ccc(N)c([N+](=O)[O-])c1[N+](=O)[O-]", "activity, negative = less viability": "inactive: -15.3%"},
      {"smiles": "O=[N+]([O-])c1cccc(NC2=NCC(CBr)S2)c1", "note": "(stereo not given)", "activity, negative = less viability": "inactive: 0.772%"}
    ]}
  ]
}
